The values that follow come from ChEMBL document CHEMBL3860073, “Thermodynamic properties of leukotriene A4 hydrolase inhibitors” (Bioorg Med Chem, 2016).

The target in assay [1] is T1, Leukotriene A-4 hydrolase (Homo sapiens, UniProt P09960).
T1 sequence (P09960 whole entry): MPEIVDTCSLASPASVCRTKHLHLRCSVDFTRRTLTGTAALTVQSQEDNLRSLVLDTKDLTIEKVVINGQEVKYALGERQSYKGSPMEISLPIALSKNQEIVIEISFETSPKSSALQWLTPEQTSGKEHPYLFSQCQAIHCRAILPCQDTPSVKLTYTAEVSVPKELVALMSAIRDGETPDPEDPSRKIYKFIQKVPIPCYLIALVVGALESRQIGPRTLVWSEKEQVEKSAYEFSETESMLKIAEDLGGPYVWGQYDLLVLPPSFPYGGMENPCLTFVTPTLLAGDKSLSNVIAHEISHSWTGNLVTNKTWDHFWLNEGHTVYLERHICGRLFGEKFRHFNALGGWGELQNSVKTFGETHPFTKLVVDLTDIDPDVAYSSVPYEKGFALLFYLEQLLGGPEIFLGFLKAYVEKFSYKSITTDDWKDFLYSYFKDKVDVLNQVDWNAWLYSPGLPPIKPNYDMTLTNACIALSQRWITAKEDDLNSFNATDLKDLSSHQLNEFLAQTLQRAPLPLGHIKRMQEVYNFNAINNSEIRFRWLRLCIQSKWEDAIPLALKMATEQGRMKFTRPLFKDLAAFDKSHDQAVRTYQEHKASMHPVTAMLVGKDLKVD
As to the kind of experiment: Inhibition of human C-terminal his6-tagged/N-terminal T7 gene leader sequence-tagged LTA4H using L-arginine-7-amino-4-Methylcoumarine as substrate preincubated for 30 mins followed by substrate addition measured for 30 mins by fluorescence assay.

The target of assay [2] is T1, Leukotriene A-4 hydrolase. Description: Binding affinity to human C-terminal his6-tagged/N-terminal T7 gene leader sequence-tagged LTA4H at 25 degC by ITC method.
The target of assay [3] is T1, Leukotriene A-4 hydrolase. As to the kind of experiment: Binding affinity to human C-terminal his6-tagged/N-terminal T7 gene leader sequence-tagged LTA4H at 15 degC by ITC method.
Assay [4] concerns the target T1, Leukotriene A-4 hydrolase. Description: Binding affinity to human C-terminal his6-tagged/N-terminal T7 gene leader sequence-tagged LTA4H at 35 degC by ITC method.
For assay [5], the target named is T1, Leukotriene A-4 hydrolase. Description: Non-competitive inhibition of human C-terminal his6-tagged/N-terminal T7 gene leader sequence-tagged LTA4H using varying levels of L-arginine-7-amino-4-Methylcoumarine as substrate preincubated for 30 mins followed by substrate addition measured for 30 mins by fluorescence assay.

As to `CN(CCCOc1ccc(Cc2ccccc2)cc1)CCC(=O)O`, it took 6 nM to reach half-maximal inhibition in assay [1] (IC50). For the same compound, the Kd in assay [2] is 290 nM; in assay [3], 60 nM; in assay [4], 350 nM. The affinity in assay [5], expressed as Ki, was 3 nM.
